What was measured:
[1] = system: PBL migration across TNF-α/IFN-γ-stimulated endothelial cells (HDBEC); conditions: for IC50: 24 h
[2] = system: peritoneal leukocyte populations; assay: Zymosan-induced peritonitis, flow cytometry of peritoneal lavage; format: in vivo, mouse (C57Bl/6 J); conditions: IP with zymosan and again at 24 h, read at 48 h, three doses, n=5

| IC50 [1] | Compound | total peritoneal F4/80high macrophage counts [2] | total peritoneal Ly6G+ neutrophil counts [2] | total peritoneal leukocyte counts (CD45+) [2] | % inhibition of Lymphocyte trafficking (0.3nM) [1] |
| --- | --- | --- | --- | --- | --- |
| 0.046 nM | CC(C)[C@H](NC(=O)[C@@H](N)CO)C(=O)N[C@H](C(=O)O)[C@@H](C)O [SVT-acid] | – | – | – | – |
| 0.017 nM | CCNC(=O)[C@@H](NC(=O)[C@@H](NC(=O)[C@@H](N)CO)C(C)C)[C@@H](C)O [SVT-NH-ethyl] | – | – | – | – |
| 0.01 nM | CC(C)[C@H](NC(=O)[C@@H](N)CO)C(=O)N[C@H](C(N)=O)[C@@H](C)O [SVT-NH2] | – | – | – | – |
| 0.042 nM | CC(=O)N[C@@H](CCC(N)=O)C(=O)NCC(=O)N[C@@H](C)C(=O)O [Ac-QGA-acid] | no effect | to a lesser extent | only showed effects at the highest dose | 38% |

Source: doi:10.1101/2024.10.14.618151v1 (bioRxiv, 2024)
